# Values of other authors, collected in US20210061712A1, “COMPOSITE STRUCTURAL MATERIAL COMPOSITIONS RESISTANT TO BIODEGRADATION” (The University of British Columbia, priority 2018, published 2021).
# Tested on: Desulfovibrio desulfricans strain
# Conditions: pipe's internal wall coated with the oxide in epoxy
substance,measurement,value
cuprous oxide,bacterial corrosion of concrete pipe,reduce the bacterial corrosion
